From patent US9737522B2, “NMDA receptor modulators and uses related thereto” (EMORY UNIVERSITY, priority 2012, dated 2017)

By UniProt entry, the sequences of proteins in these tests, tags left out. Residues count along the entry.
UniProt Q00961, 20-1237: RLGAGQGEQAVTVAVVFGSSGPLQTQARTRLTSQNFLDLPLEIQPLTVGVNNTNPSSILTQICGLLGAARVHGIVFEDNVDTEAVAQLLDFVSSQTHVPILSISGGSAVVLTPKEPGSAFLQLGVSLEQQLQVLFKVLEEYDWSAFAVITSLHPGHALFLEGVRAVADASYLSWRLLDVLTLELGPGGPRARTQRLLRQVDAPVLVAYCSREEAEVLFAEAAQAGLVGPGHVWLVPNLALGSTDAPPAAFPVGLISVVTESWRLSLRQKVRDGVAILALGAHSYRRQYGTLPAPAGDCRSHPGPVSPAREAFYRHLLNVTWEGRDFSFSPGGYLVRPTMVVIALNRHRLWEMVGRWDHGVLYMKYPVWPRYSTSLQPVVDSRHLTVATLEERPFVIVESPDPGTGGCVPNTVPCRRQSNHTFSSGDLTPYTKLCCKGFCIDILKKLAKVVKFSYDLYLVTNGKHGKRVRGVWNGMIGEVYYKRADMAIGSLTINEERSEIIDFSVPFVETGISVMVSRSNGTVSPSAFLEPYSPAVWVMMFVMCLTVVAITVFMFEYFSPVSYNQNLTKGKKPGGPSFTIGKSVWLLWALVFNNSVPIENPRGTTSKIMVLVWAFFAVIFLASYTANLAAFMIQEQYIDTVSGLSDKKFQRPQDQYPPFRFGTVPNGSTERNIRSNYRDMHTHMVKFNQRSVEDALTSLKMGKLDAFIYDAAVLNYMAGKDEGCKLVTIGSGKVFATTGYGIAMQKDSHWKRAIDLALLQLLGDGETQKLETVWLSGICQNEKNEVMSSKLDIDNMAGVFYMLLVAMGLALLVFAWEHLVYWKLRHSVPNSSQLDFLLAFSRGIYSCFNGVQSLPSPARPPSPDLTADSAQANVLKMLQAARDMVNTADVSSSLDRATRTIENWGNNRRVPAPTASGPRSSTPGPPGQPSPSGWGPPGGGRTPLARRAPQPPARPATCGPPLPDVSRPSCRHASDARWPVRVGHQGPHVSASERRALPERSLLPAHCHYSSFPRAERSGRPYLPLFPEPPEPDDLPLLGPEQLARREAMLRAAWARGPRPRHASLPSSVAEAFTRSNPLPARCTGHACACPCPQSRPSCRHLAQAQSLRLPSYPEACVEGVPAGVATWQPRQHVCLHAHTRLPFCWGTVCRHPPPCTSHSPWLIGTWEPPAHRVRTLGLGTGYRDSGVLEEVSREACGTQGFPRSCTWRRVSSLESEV

Target: recombinant rat GluN1/GluN2C receptors (NR2C) (Rattus norvegicus (Rat), UniProt P35439+Q00961)
Assay: Two-electrode voltage-clamp recordings, Xenopus laevis oocytes, NR2C
Format: cell-based
Settings: head prints IC50; method describes EC50 of potentiator
Method: Two-electrode voltage-clamp recordings were made from Xenopus laevis oocytes expressing recombinant rat GluN1/GluN2A, GluN1/GluN2B, GluN1/GluN2C, GluN1/GluN2D, GluA1, or GluK2 receptors following injection of 5-10 ng of cRNA synthesized according to manufacturers' protocols (Ambin, mMessage, mMachine). cDNAs used were rat GluN1-1a (GenBank accession numbers U11418 and U08261; hereafter GluN1), GluN2A (D13211), GluN2B (U11419), GluN2C (M91563), GluN2D (L31611), GluA1 (X17184), GluK2 (Z11548). The current under voltage-clamp was recorded during perfusion with recording solution containing (in mM) 90 NaCl, 1.0 KCl, 0.5 BaCl2, 0.005 EDTA, and 10 HEPES at pH 7.4 (23° C.). Glass micropipettes had resistances of 0.3-1.0 MS2 and were filled with 3.0 M KCl. The membrane potential was clamped at −40 mV during the experiment. Recordings were digitized at 10 Hz and analyzed off line. 20 mM stock solutions of test compounds in 100% DMSO were made and diluted to obtain the final concentration; final DMSO content was 0.05-0.5% (vol/vol). […] NMDA receptor responses were obtained by challenging oocytes with 100 μM glutamate plus 30 μM glycine; GluA1 and GluK2 receptors responses were recorded during application of 100 μM glutamate. We recorded the response to 5-7 concentrations of test drug co-applied with glutamate and glycine in 5 or more oocytes obtained from two different frogs. […]

- EC50 (potentiation): 24 µM
SMILES: COC(=O)c1ccc(C2C(C(C)=O)=C(O)C(=O)N2CCc2c[nH]c3ccccc23)cc1 (stereo not shown)
